One assay addresses T1, PDE4A1 (Homo sapiens, UniProt P27815).
T1 construct: gene PDE4A
In words: biochemical.

Sequences of proteins named here, by UniProt entry; tags and fusion partners are left off. A change or cut given only in a name is not applied to a line headed by its entry. Residues count along the entry.
UniProt P27815, 265-886 limits assumed: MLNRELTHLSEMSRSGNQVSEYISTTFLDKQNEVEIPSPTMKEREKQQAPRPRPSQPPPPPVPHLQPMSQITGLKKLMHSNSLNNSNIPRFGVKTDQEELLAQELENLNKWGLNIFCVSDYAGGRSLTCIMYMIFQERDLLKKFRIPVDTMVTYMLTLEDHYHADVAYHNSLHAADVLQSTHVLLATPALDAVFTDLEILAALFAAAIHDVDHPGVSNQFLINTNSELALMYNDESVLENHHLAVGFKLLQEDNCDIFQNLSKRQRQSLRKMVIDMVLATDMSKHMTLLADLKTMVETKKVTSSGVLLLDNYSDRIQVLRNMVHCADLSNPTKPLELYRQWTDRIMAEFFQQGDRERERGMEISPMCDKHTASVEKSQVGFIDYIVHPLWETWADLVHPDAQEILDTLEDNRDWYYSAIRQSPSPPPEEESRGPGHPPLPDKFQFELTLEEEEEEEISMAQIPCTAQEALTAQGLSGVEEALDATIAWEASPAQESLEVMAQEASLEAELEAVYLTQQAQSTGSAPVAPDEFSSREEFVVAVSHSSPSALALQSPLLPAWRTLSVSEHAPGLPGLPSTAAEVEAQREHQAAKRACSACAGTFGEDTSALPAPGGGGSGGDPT
UniProt Q08493: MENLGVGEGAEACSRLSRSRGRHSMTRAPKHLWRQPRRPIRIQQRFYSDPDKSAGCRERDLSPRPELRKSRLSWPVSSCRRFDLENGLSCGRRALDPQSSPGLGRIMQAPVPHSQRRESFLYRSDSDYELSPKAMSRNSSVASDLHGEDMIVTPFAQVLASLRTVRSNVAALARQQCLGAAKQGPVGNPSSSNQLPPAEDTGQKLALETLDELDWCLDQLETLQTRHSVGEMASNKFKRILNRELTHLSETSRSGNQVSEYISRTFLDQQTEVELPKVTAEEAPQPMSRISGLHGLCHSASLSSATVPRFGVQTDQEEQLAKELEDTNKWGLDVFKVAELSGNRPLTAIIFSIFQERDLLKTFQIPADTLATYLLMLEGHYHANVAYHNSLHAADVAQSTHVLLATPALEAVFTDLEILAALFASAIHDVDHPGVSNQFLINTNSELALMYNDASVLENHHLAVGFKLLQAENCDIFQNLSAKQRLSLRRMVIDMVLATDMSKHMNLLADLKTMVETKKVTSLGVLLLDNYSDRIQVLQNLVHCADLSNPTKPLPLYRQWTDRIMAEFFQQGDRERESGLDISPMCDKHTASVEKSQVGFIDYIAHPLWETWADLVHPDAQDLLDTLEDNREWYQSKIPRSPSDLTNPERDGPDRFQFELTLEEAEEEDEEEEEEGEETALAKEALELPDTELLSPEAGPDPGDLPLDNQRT

The target of the next assay is T2, PDE4C1 (Homo sapiens, UniProt Q08493).
T2 construct: gene PDE4C
The experiment in a line: biochemical.

SMILES strings stand for the structures.

A word on the IC50: it is the concentration that gives 50% inhibition. Regarding `CCOc1cc([C@@H](CS(C)(=O)=O)N2C(=O)c3cccc(NC(C)=O)c3C2=O)ccc1OC` [apremilast], the IC50 against PDE4A1 was 2.33 ± 0.71 nM; against PDE4C1, 63.1 ± 23.3 nM.

These data come from paper PMC10345255 (Biomedical Journal, 2022).
